# Experimental data taken from PMC10958125 (Clinical and Translational Medicine, 2024).
# Amino acid sequences for entries named in this document (tags omitted). Residues count along the entry.
# UniProt P08069, 31-1367: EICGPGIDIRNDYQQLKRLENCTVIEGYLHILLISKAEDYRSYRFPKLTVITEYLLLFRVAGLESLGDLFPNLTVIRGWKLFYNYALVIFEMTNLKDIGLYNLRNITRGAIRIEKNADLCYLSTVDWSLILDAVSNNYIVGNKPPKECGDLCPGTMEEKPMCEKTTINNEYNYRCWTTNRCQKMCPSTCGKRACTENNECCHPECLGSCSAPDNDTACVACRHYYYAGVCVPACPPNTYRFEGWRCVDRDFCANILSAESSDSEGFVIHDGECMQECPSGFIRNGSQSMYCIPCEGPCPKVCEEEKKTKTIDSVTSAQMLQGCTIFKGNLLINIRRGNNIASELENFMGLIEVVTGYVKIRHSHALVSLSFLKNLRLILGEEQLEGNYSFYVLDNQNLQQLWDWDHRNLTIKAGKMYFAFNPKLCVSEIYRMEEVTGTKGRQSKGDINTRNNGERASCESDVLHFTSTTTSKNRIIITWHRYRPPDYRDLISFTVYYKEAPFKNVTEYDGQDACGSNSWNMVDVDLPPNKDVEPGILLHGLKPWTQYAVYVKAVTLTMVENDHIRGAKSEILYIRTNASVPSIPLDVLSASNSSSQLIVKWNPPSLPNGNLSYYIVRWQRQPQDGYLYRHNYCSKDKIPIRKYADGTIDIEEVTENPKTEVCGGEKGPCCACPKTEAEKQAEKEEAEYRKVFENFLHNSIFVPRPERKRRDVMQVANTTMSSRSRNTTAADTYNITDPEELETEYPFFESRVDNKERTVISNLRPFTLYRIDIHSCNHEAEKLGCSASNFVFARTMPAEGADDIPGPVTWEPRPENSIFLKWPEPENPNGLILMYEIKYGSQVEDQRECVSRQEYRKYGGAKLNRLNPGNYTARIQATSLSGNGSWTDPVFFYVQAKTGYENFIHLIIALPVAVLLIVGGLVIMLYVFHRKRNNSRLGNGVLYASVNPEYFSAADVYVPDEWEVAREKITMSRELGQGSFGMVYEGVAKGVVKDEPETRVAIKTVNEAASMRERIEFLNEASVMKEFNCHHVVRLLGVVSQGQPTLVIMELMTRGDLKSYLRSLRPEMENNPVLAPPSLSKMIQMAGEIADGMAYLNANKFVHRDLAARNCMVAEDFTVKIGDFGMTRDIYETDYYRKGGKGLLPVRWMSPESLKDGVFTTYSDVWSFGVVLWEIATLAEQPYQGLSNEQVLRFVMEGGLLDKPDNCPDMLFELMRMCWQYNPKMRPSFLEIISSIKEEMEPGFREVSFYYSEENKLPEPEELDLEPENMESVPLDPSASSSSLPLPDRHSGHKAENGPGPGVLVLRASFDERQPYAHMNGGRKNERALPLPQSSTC
# Molecular target: IGF‐1R (Homo sapiens, UniProt P08069)
# Test: Ligand-dependent phosphorylation of IGF-1R(Y1131) in PBMCs stimulated ex vivo with rhIGF-1
# Details: normal volunteer, lycopene 150mg/d x 7d
smiles,measurement,setting,value
CC(C)=CCC/C(C)=C/C=C/C(C)=C/C=C/C(C)=C/C=C/C=C(C)/C=C/C=C(C)/C=C/C=C(\C)CCC=C(C)C [lycopene],"Reduction in ligand-stimulated phosphorylation of the IGF-1R, nadir",12 days after start of dosing,65%
same,Reduction in ligand-stimulated phosphorylation of the IGF-1R,at 7 days,50%
